Target: T1, Neutrophil elastase (Homo sapiens, UniProt P08246)
T1 sequence (P08246 whole entry): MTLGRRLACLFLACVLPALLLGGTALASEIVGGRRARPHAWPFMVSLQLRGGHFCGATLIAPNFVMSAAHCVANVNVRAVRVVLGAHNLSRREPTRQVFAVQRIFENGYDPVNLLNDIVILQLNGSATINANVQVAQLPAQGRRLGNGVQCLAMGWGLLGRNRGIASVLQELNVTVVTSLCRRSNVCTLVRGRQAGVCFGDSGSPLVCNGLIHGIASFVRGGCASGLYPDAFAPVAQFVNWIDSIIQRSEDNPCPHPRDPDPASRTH
Test: Steady state inhibition constant for Human Leukocyte Elastase inhibition
Conditions: for kon: read-out: kon (M-1-s-1)
Summary of the method: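 Progress-curve assay at 25 °C with HLE purified from human leukocytes, in 50 mM sodium phosphate, 500 mM NaCl, pH 7.8. Substrate was MeOSuc-Ala-Ala-Pro-Val-pNA (200 μM final, 405 nm, 30–75 min) or, for a few inhibitors, Suc-Ala-Ala-Pro-Val-AMC (125 μM final, ex 340/em 460 nm, 4–5 min). At least five inhibitor concentrations were used, or 10 μM alone where solubility limited. Curves were fitted by slow-binding kinetics (k_obs = k_on'[I] + k_off).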

SMILES | koff | kon
CCOc1nc2sc(C)c(C)c2c(=O)o1 [2-Ethoxy-5,6-dimethyl-thieno[2,3-d][1,3]oxazin-4-one] | 0.00013 s⁻¹ | 12200 M⁻¹ s⁻¹
Cc1sc2nc(SCc3ccccc3)oc(=O)c2c1C [2-Benzylsulfanyl-5,6-dimethyl-thieno[2,3-d][1,3]oxazin-4-one] | 0.000358 s⁻¹ | 3540 M⁻¹ s⁻¹
CC(C)COc1nc2sc3c(c2c(=O)o1)CCCC3 [2-Isobutoxy-5,6,7,8-tetrahydro-benzo[4,5]thieno[2,3-d][1,3]oxazin-4-one] | 5.15e-05 s⁻¹ | 1010 M⁻¹ s⁻¹
CC(C)Nc1nc2sccc2c(=O)o1 [2-Isopropylamino-thieno[2,3-d][1,3]oxazin-4-one] | 0.000134 s⁻¹ | 3200 M⁻¹ s⁻¹
CCSc1nc2sc(C)c(C)c2c(=O)o1 [2-Ethylsulfanyl-5,6-dimethyl-thieno[2,3-d][1,3]oxazin-4-one] | 0.00358 s⁻¹ | 1.31e+06 M⁻¹ s⁻¹
CCN(CC)c1nc2sc3c(c2c(=O)o1)CCCC3 [2-Diethylamino-5,6,7,8-tetrahydro-benzo[4,5]thieno[2,3-d][1,3]oxazin-4-one] | 6.12e-05 s⁻¹ | 3750 M⁻¹ s⁻¹
CSc1nc2sc(C)c(C)c2c(=O)o1 [5,6-Dimethyl-2-methylsulfanyl-thieno[2,3-d][1,3]oxazin-4-one] | 0.000567 s⁻¹ | 16200 M⁻¹ s⁻¹
CC(C)Nc1nc2sc3c(c2c(=O)o1)CCCC3 [2-isopropylamino-5,6,7,8-tetrahydro-benzo[4,5]thieno[2,3-d][1,3]oxazin-4-one] | 0.000201 s⁻¹ | 1390 M⁻¹ s⁻¹
Cc1sc2nc(OCC(C)C)oc(=O)c2c1C [2-Isobutoxy-5,6-dimethyl-thieno[2,3-d][1,3]oxazin-4-one] | 2.92e-05 s⁻¹ | 219 M⁻¹ s⁻¹
CCCOc1nc2sc(C)c(C)c2c(=O)o1 [5,6-Dimethyl-2-propoxy-thieno[2,3-d][1,3]oxazin-4-one] | 6.28e-05 s⁻¹ | 15600 M⁻¹ s⁻¹
CCOc1nc2scc(C(C)C)c2c(=O)o1 [2-Ethoxy-5-isopropyl-thieno[2,3-d][1,3]oxazin-4-one] | 0.000429 s⁻¹ | 76400 M⁻¹ s⁻¹
CCOc1nc2sc3c(c2c(=O)o1)CCCC3 [2-Ethoxy-5,6,7,8-tetrahydro-benzo[4,5]thieno[2,3-d][1,3]oxazin-4-one] | 0.000127 s⁻¹ | 93600 M⁻¹ s⁻¹
COC(=O)CSc1nc2sc3c(c2c(=O)o1)CCCC3 [(4-Oxo-5,6,7,8-tetrahydro-4H-benzo[4,5]thieno[2,3-d][1,3]oxazin-2-ylsulfanyl)-acetic acid methyl ester] | 2.92e-05 s⁻¹ | 1630 M⁻¹ s⁻¹
CCCOc1nc2sc3c(c2c(=O)o1)CCCC3 [2-Propoxy-5,6,7,8-tetrahydro-benzo[4,5]thieno[2,3-d][1,3]oxazin-4-one] | 0.000142 s⁻¹ | 99300 M⁻¹ s⁻¹
O=c1oc(SCc2ccccc2)nc2sc3c(c12)CCCC3 [2-Benzylsulfanyl-5,6,7,8-tetrahydro-benzo[4,5]thieno[2,3-d][1,3]oxazin-4-one] | 6.92e-05 s⁻¹ | 239 M⁻¹ s⁻¹

Reference: BindingDB's records for doi:10.1021/jm9708341 (University of Leipzig, 1998)
